Measured values: PubChem BioAssay (NCI)
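1) Cells in 96-well plates. 2) Compound, 48 h, 5 concentrations. 3) Linear interpolation between surrounding doses. 4) Unreached endpoint = highest concentration. GI50 marks 50% less growth.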

How the values were obtained:
Test in all cases: NCI tumour cell line growth inhibition, 48 h; in the data active = GI50 below about 0.43 µM; inactive = the rest
NCI-H460 lung = tested on: NCI-H460 lung
SK-MEL-2 melanoma = tested on: SK-MEL-2 melanoma
CCRF-CEM leukemia = tested on: CCRF-CEM leukemia
SK-OV-3 ovarian = tested on: SK-OV-3 ovarian
NCI-H522 lung = tested on: NCI-H522 lung
NCI/ADR-RES ovarian = tested on: NCI/ADR-RES ovarian
LOX IMVI melanoma = tested on: LOX IMVI melanoma
SNB-19 CNS = tested on: SNB-19 CNS
OVCAR-3 ovarian = tested on: OVCAR-3 ovarian
CAKI-1 renal = tested on: CAKI-1 renal
A549 NSCLC = tested on: A549 NSCLC
SW-620 colon = tested on: SW-620 colon
UO-31 renal = tested on: UO-31 renal
COLO 205 colon = tested on: COLO 205 colon
HCC-2998 colon = tested on: HCC-2998 colon
UACC-257 melanoma = tested on: UACC-257 melanoma
786-0 renal = tested on: 786-0 renal
TK-10 renal = tested on: TK-10 renal
SK-MEL-5 melanoma = tested on: SK-MEL-5 melanoma
SF-539 CNS = tested on: SF-539 CNS
EKVX NSCLC = tested on: EKVX NSCLC
HL-60(TB) leukemia = tested on: HL-60(TB) leukemia
ACHN renal = tested on: ACHN renal
SK-MEL-28 melanoma = tested on: SK-MEL-28 melanoma
T-47D breast = tested on: T-47D breast
HS 578T breast = tested on: HS 578T breast
OVCAR-4 ovarian = tested on: OVCAR-4 ovarian
SN12C renal = tested on: SN12C renal
MOLT-4 leukemia = tested on: MOLT-4 leukemia
RPMI-8226 leukemia = tested on: RPMI-8226 leukemia
HT29 colon = tested on: HT29 colon
PC-3 prostate = tested on: PC-3 prostate
DU-145 prostate = tested on: DU-145 prostate
M14 melanoma = tested on: M14 melanoma
HOP-62 NSCLC = tested on: HOP-62 NSCLC
SF-268 CNS = tested on: SF-268 CNS
MDA-MB-435 = tested on: MDA-MB-435
SR leukemia = tested on: SR leukemia
OVCAR-5 ovarian = tested on: OVCAR-5 ovarian
BT-549 breast = tested on: BT-549 breast
K-562 leukemia = tested on: K-562 leukemia
SF-295 CNS = tested on: SF-295 CNS
HCT-15 colon = tested on: HCT-15 colon
MDA-N = tested on: MDA-N
MCF7 breast = tested on: MCF7 breast
MDA-MB-231 breast = tested on: MDA-MB-231 breast
KM12 colon = tested on: KM12 colon
NCI-H23 lung = tested on: NCI-H23 lung
NCI-H226 lung = tested on: NCI-H226 lung
HCT-116 colon = tested on: HCT-116 colon
RXF 393 renal = tested on: RXF 393 renal
HOP-92 NSCLC = tested on: HOP-92 NSCLC
MALME-3M melanoma = tested on: MALME-3M melanoma
OVCAR-8 ovarian = tested on: OVCAR-8 ovarian
A498 renal = tested on: A498 renal
SNB-75 CNS = tested on: SNB-75 CNS
U251 CNS = tested on: U251 CNS
NCI-H322M lung = tested on: NCI-H322M lung
UACC-62 melanoma = tested on: UACC-62 melanoma

Measured: GI50

CN(C(=O)CSc1ccc2ccccc2c1)[C@H]1CCCC[C@H]1N1CCCC1
inactive: NCI-H460 lung 19.6 µM | SK-MEL-2 melanoma 18.8 µM | CCRF-CEM leukemia 22.3 µM | SK-OV-3 ovarian 48.5 µM | NCI-H522 lung 19.7 µM | NCI/ADR-RES ovarian 35.4 µM | LOX IMVI melanoma 15 µM | SNB-19 CNS 54.4 µM | OVCAR-3 ovarian 34 µM | CAKI-1 renal 41.2 µM | A549 NSCLC 42 µM | SW-620 colon 42.8 µM | UO-31 renal 18.1 µM | COLO 205 colon 18.3 µM | HCC-2998 colon 17.1 µM | UACC-257 melanoma 18.3 µM | 786-0 renal 16.7 µM | TK-10 renal 21.6 µM | SK-MEL-5 melanoma 16.4 µM | SF-539 CNS 16.9 µM | EKVX NSCLC 36.6 µM | HL-60(TB) leukemia 16.8 µM | ACHN renal 59.6 µM | SK-MEL-28 melanoma 37.4 µM | T-47D breast 29.9 µM | HS 578T breast 26.9 µM | OVCAR-4 ovarian 32.5 µM | SN12C renal 34.9 µM | MOLT-4 leukemia 24 µM | RPMI-8226 leukemia 22 µM | HT29 colon 14 µM | PC-3 prostate 23.9 µM | DU-145 prostate > 100 µM | M14 melanoma 15.5 µM | HOP-62 NSCLC 75.6 µM | SF-268 CNS 42.2 µM | MDA-MB-435 = 23.4 µM | SR leukemia 21.2 µM | OVCAR-5 ovarian 18.6 µM | BT-549 breast 20.5 µM | K-562 leukemia 19.2 µM | SF-295 CNS 22 µM | HCT-15 colon 31.9 µM | MDA-N 22.4 µM | MCF7 breast 29.6 µM | MDA-MB-231 breast 23.6 µM | KM12 colon 37.2 µM | NCI-H23 lung 31.9 µM | NCI-H226 lung 18.3 µM | HCT-116 colon 29.8 µM | RXF 393 renal 29.5 µM | HOP-92 NSCLC 28.6 µM | MALME-3M melanoma 15.3 µM | OVCAR-8 ovarian 46.4 µM | A498 renal 17.5 µM | SNB-75 CNS 55 µM | U251 CNS 33.6 µM | NCI-H322M lung 52.2 µM | UACC-62 melanoma 19.8 µM
